From patent publication US20210395313A1, “PEPTIDE PAC1 ANTAGONISTS” (AMGEN INC., priority 2017, published 2021)

Key:
human PAC1 receptor = molecular target: T1, human PAC1 receptor (Homo sapiens, UniProt P41586); test: LANCE Ultra cAMP accumulation antagonist assay in SHSY-5Y cells; type: cell-based;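 further: inhibition of cAMP accumulation evoked by PAC1 agonist at its EC80 in SHSY-5Y cells endogenously expressing receptor, 30 min preincubation then 15 min agonist, TR-FRET readout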
T1 construct: SHSY-5Y (human neuroblastoma cell line) and RG-2 (rat glioma cell line) cells endogenously express human and rat PAC1 receptors, respectively; endogenous in cells; host or cells: SHSY-5Y human neuroblastoma cells
T1 sequence (P41586 21-468): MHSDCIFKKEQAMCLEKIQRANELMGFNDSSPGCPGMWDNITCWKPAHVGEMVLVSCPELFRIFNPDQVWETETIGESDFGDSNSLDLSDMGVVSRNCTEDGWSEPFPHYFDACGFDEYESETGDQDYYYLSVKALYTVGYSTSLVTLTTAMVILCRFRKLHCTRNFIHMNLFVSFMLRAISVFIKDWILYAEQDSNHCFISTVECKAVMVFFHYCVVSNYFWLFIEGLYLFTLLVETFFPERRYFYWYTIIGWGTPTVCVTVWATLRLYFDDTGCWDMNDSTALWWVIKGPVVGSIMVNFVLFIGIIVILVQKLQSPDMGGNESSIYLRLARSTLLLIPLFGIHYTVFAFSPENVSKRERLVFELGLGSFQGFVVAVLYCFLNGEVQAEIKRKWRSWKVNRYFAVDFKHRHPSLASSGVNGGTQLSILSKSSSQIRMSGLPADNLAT

rat PAC1 receptor = molecular target: T2, rat PAC1 receptor (Rattus norvegicus, UniProt P32215); test: LANCE Ultra cAMP accumulation antagonist assay in RG-2 cells; type: cell-based;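 further: RG-2 rat glioma cells endogenously expressing PAC1, test peptide preincubated 30 min, then PAC1 agonist added at its EC80 for 15 min, cAMP accumulation read by LANCE Ultra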
T2 construct: SHSY-5Y (human neuroblastoma cell line) and RG-2 (rat glioma cell line) cells endogenously express human and rat PAC1 receptors, respectively; endogenous in cells; host or cells: RG-2 rat glioma cells
T2 sequence (P32215 20-523): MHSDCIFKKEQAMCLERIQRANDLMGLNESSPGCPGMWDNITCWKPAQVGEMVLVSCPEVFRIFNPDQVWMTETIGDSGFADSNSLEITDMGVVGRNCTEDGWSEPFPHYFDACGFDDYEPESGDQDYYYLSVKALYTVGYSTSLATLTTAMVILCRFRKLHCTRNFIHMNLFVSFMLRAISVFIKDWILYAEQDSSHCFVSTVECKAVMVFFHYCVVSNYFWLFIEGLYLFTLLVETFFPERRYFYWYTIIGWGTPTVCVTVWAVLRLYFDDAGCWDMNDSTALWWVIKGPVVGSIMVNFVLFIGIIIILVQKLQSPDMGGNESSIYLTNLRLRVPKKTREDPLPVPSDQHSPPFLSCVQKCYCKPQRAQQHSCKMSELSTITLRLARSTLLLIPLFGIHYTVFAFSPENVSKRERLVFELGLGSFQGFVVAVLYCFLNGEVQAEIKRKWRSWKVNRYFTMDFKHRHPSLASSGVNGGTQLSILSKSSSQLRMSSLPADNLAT

| Compound | IC50 (human PAC1 receptor) | IC50 (rat PAC1 receptor) |
| --- | --- | --- |
| CCCC[C@H](NC(=O)[C@@H]1CSSC[C@H](NC(=O)[C@H](CC(=O)O)NC(=O)[C@H](CC(=O)O)NC(=O)[C@@H](NC(=O)[C@H](C)NC(=O)[C@H](CCCCN)NC(=O)[C@H](CCCNC(=N)N)NC(=O)[C@H](Cc2ccccc2)NC(=O)[C@H](CCC(N)=O)NC(=O)[C@@H]2CSSC[C@H](N)C(=O)N[C@@H](CC(=O)O)C(=O)N[C@@H](C)C(=O)N[C@@H]([C@@H](C)O)C(=O)N2)[C@@H](C)CC)C(=O)N[C@@H](CC(=O)O)C(=O)N[C@@H](CCCCN)C(=O)N[C@@H](CCC(N)=O)C(=O)N[C@@H](C)C(=O)N[C@@H](Cc2c[nH]cn2)C(=O)N[C@@H](Cc2c[nH]cn2)C(=O)N[C@@H](CO)C(=O)N[C@@H](CC(N)=O)C(=O)N[C@@H](C(C)C)C(=O)N2CCC[C@H]2C(=O)NCC(=O)N[C@@H](CO)C(=O)N[C@@H](Cc2ccccc2)C(=O)N[C@@H](CCCCN)C(=O)NC(C)(C)C(=O)N1)C(=O)N[C@@H](CCCCN)C(=O)N[C@@H](CCC(N)=O)C(=O)N[C@@H](CCCCN)C(=O)N[C@@H](CCCCN)C(=O)N[C@@H](CCCCN)C(=O)N[C@@H](CCC(=O)O)C(=O)N[C@@H](Cc1ccccc1)C(=O)N[C@@H](CCCCN)C(N)=O [compound 257] | 1 to 100 nM | 0.01 to 1 nM |
| CCCC[C@H](NC(=O)[C@@H]1CSSC[C@H](NC(=O)[C@H](CC(=O)O)NC(=O)[C@H](CC(=O)O)NC(=O)[C@@H](NC(=O)[C@H](C)NC(=O)[C@H](CCCCN)NC(=O)[C@H](CCCNC(=N)N)NC(=O)[C@H](Cc2ccccc2)NC(=O)[C@H](CCC(N)=O)NC(=O)[C@@H]2CSSC[C@H](N)C(=O)N[C@@H](CC(=O)O)C(=O)N[C@@H](C)C(=O)N[C@@H]([C@@H](C)O)C(=O)N2)[C@@H](C)CC)C(=O)N[C@@H](CC(=O)O)C(=O)N[C@@H](CCCCN)C(=O)N[C@@H](CCC(N)=O)C(=O)N[C@@H](C)C(=O)N[C@@H](Cc2c[nH]cn2)C(=O)N[C@@H](Cc2c[nH]cn2)C(=O)N[C@@H](CO)C(=O)N[C@@H](CC(N)=O)C(=O)N[C@@H](C(C)C)C(=O)N2CCC[C@H]2C(=O)NCC(=O)N[C@@H](CC(N)=O)C(=O)N[C@@H](CO)C(=O)N[C@@H](Cc2ccccc2)C(=O)N[C@@H](CCCCN)C(=O)NC(C)(C)C(=O)N1)C(=O)N[C@@H](CCCCN)C(=O)N[C@@H](CCC(N)=O)C(=O)N[C@@H](CCCCN)C(=O)N[C@@H](CCCCN)C(=O)N[C@@H](CCCCN)C(=O)N[C@@H](CCC(=O)O)C(=O)N[C@@H](Cc1ccccc1)C(=O)N[C@@H](CCCCN)C(N)=O [compound 258] | 1 to 100 nM | 0.01 to 1 nM |
| CCCC[C@H](NC(=O)[C@@H]1CSSC[C@H](NC(=O)[C@H](CC(=O)O)NC(=O)[C@H](CC(=O)O)NC(=O)[C@@H](NC(=O)[C@H](C)NC(=O)[C@H](CCCCN)NC(=O)[C@H](CCCNC(=N)N)NC(=O)[C@H](Cc2ccccc2)NC(=O)[C@H](CCC(N)=O)NC(=O)[C@@H]2CSSC[C@H](N)C(=O)N[C@@H](CC(=O)O)C(=O)N[C@@H](C)C(=O)N[C@@H]([C@@H](C)O)C(=O)N2)[C@@H](C)CC)C(=O)N[C@@H](CC(=O)O)C(=O)N[C@@H](CCCCN)C(=O)N[C@@H](CCC(N)=O)C(=O)N[C@@H](C)C(=O)N[C@@H](Cc2c[nH]cn2)C(=O)N[C@@H](Cc2c[nH]cn2)C(=O)N[C@@H](CO)C(=O)N[C@@H](CC(N)=O)C(=O)N[C@@H](C(C)C)C(=O)N2CCC[C@H]2C(=O)NCC(=O)N[C@@H](CO)C(=O)N[C@@H](C(C)C)C(=O)N[C@@H](Cc2ccccc2)C(=O)N[C@@H](CCCCN)C(=O)NC(C)(C)C(=O)N1)C(=O)N[C@@H](CCCCN)C(=O)N[C@@H](CCC(N)=O)C(=O)N[C@@H](CCCCN)C(=O)N[C@@H](CCCCN)C(=O)N[C@@H](CCCCN)C(=O)N[C@@H](CCC(=O)O)C(=O)N[C@@H](Cc1ccccc1)C(=O)N[C@@H](CCCCN)C(N)=O [compound 259] | 1 to 100 nM | 0.01 to 1 nM |
| CCCC[C@H](NC(=O)[C@@H]1CSSC[C@H](NC(=O)[C@H](CC(=O)O)NC(=O)[C@H](CC(=O)O)NC(=O)[C@@H](NC(=O)[C@H](C)NC(=O)[C@H](CCCCN)NC(=O)[C@H](CCCNC(=N)N)NC(=O)[C@H](Cc2ccccc2)NC(=O)[C@H](CCC(N)=O)NC(=O)[C@@H]2CSSC[C@H](NC(C)=O)C(=O)N[C@@H](CC(=O)O)C(=O)N[C@@H](C)C(=O)N[C@@H]([C@@H](C)O)C(=O)N2)[C@@H](C)CC)C(=O)N[C@@H](CCC(N)=O)C(=O)N[C@@H](CCCCN)C(=O)N[C@@H](CCC(N)=O)C(=O)N[C@@H](C)C(=O)N[C@@H](Cc2c[nH]cn2)C(=O)N[C@@H](Cc2c[nH]cn2)C(=O)N[C@@H](CO)C(=O)N[C@@H](CC(N)=O)C(=O)N[C@@H](C(C)C)C(=O)N2CCC[C@H]2C(=O)NCC(=O)N[C@@H](CO)C(=O)N[C@@H](C(C)C)C(=O)N[C@@H](Cc2ccccc2)C(=O)N[C@@H](CCCCN)C(=O)NC(C)(C)C(=O)N1)C(=O)N[C@@H](CCCCN)C(=O)N[C@@H](CCC(N)=O)C(=O)N[C@@H](CCCCN)C(=O)N[C@@H](CCCCN)C(=O)N[C@@H](CCCCN)C(=O)N[C@@H](CCC(=O)O)C(=O)N[C@@H](Cc1ccccc1)C(=O)N[C@@H](CCCCN)C(N)=O [compound 260] | 1 to 100 nM | 0.01 to 1 nM |
| CCCC[C@H](NC(=O)[C@@H]1CSSC[C@H](NC(=O)[C@H](CC(=O)O)NC(=O)[C@H](CC(=O)O)NC(=O)[C@@H](NC(=O)[C@H](C)NC(=O)[C@H](CCCCN)NC(=O)[C@H](CCCNC(=N)N)NC(=O)[C@H](Cc2ccccc2)NC(=O)[C@H](CCC(N)=O)NC(=O)[C@@H]2CSSC[C@H](N)C(=O)N[C@@H](CC(=O)O)C(=O)N[C@@H](C)C(=O)N[C@@H]([C@@H](C)O)C(=O)N2)[C@@H](C)CC)C(=O)N[C@@H](CC(=O)O)C(=O)N[C@@H](CCCCN)C(=O)N[C@@H](CCC(N)=O)C(=O)N[C@@H](C)C(=O)N[C@@H](Cc2c[nH]cn2)C(=O)N[C@@H](Cc2c[nH]cn2)C(=O)N[C@@H](CO)C(=O)N[C@@H](CC(N)=O)C(=O)N[C@@H](C(C)C)C(=O)N2CCC[C@H]2C(=O)NCC(=O)N[C@@H](CC(N)=O)C(=O)N[C@@H](CO)C(=O)N[C@@H](C(C)C)C(=O)N[C@@H](Cc2ccccc2)C(=O)N[C@@H](CCCCN)C(=O)NC(C)(C)C(=O)N1)C(=O)N[C@@H](CCCCN)C(=O)N[C@@H](CCC(N)=O)C(=O)N[C@@H](CCCCN)C(=O)N[C@@H](CCCCN)C(=O)N[C@@H](CCCCN)C(=O)N[C@@H](CCC(=O)O)C(=O)N[C@@H](Cc1ccccc1)C(=O)N[C@@H](CCCCN)C(N)=O [compound 261] | 1 to 100 nM | 0.01 to 1 nM |
| CC[C@H](C)[C@H](NC(=O)[C@H](C)NC(=O)[C@H](CCCCN)NC(=O)[C@H](CCCNC(=N)N)NC(=O)[C@H](Cc1ccccc1)NC(=O)[C@H](CCC(N)=O)NC(=O)[C@@H]1CSSC[C@H](N)C(=O)N[C@@H](CC(=O)O)C(=O)N[C@@H](C)C(=O)N[C@@H]([C@@H](C)O)C(=O)N1)C(=O)N[C@@H](CC(=O)O)C(=O)N[C@@H](CC(=O)O)C(=O)N[C@H]1CSSC[C@@H](C(=O)N[C@@H](CCSC)C(=O)N[C@@H](CCCCN)C(=O)N[C@@H](CCC(N)=O)C(=O)N[C@@H](CCCCN)C(=O)N[C@@H](CCCCN)C(=O)N[C@@H](CCCCN)C(=O)N[C@@H](CCC(=O)O)C(=O)N[C@@H](Cc2ccccc2)C(=O)N[C@@H](CCCCN)C(=O)N[C@@H](C)C(=O)NCC(N)=O)NC(=O)C(C)(C)NC(=O)[C@H](CCCCN)NC(=O)[C@H](Cc2ccccc2)NC(=O)[C@H](C(C)C)NC(=O)[C@H](CO)NC(=O)CNC(=O)[C@H](C(C)C)NC(=O)[C@H](CC(N)=O)NC(=O)[C@H](CO)NC(=O)[C@H](Cc2c[nH]cn2)NC(=O)[C@H](Cc2c[nH]cn2)NC(=O)[C@H](C)NC(=O)[C@H](CCC(N)=O)NC(=O)[C@H](CCCCN)NC(=O)[C@H](CCC(N)=O)NC1=O [compound 262] | 1 to 100 nM | 0.01 to 1 nM |
